Results reported in PubChem BioAssay AID1259423 (Fisher Drug Discovery Resource Center, 2018).
The list shows a part of the results, in another mix than the full data. Some results for these compounds are left out of this collection, so the calls shown say nothing about other tests. The source made the active and inactive calls. Cut-off read from the data, not from the text of the source: active = activation above about 40%; inactive = the rest, inconclusive results apart.

These compounds were tested on Aedes aegypti neuropeptide Y-like receptor 7 (NPYLR7) (assay: agonists of mosquito NPYLR7 receptor, primary screen, cell-based, Aedes aegypti, calcium fluorescence, mosquito biting behavior (AID 1259423;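 note: 0% = vehicle and 100% = reference agonist at the receptor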)). Details: HEK293T NPYLR7/Galpha15, GCaMP6s calcium fluorescence; at 10 µM; active compounds read high.
In the case of `N#CC(C#N)=Cc1ccc(Br)cc1`, the activation is reported as inactive: 11.7%. In the case of `CN(C)C1(CNC(=O)c2cc(Br)c(Br)s2)CCCCC1`, the activation is reported as inactive: 4.09%.
